39 molecules from article PMC9421653 (Journal of Medicinal Chemistry, 2022) can be followed below.

Amino acid sequences for entries named in this document (tags omitted). A change or cut given only in a name is not applied to a line headed by its entry.
UniProt P04899: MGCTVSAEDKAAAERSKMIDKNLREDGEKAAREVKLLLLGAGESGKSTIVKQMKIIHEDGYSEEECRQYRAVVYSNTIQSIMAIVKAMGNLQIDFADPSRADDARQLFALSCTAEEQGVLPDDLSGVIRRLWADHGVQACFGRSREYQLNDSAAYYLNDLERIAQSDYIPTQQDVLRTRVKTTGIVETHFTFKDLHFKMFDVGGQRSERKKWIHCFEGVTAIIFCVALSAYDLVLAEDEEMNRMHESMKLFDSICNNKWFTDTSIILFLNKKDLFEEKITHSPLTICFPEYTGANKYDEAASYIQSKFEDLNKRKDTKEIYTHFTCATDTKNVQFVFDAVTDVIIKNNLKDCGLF
UniProt Q9NQS5: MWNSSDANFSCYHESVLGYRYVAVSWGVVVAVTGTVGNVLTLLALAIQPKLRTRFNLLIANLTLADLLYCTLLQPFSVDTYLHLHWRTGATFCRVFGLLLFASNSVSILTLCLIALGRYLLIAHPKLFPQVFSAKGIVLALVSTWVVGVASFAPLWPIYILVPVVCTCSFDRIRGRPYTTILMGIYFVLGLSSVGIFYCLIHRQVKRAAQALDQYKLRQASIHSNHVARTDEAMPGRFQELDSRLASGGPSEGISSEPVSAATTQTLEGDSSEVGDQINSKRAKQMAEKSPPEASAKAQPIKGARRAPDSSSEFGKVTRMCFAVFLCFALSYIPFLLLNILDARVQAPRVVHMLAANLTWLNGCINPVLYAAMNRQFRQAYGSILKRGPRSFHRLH

The target of the first experiment is T1, human GPR84 (Homo sapiens, UniProt P04899+Q9NQS5).
T1 construct: expressed in transfected cells; host or cells: Flp-In T-REx 293 cells, doxycycline-induced; membrane preparations
The class given is biochemical. The following applies: LLE = pIC50 – CLog P.
In turn, `c1ccc(-c2nc(Cc3c[nH]c4ccccc34)nnc2-c2ccc(CN3CCOCC3)cc2)cc1` [Compound 42, 4-(4-(3-((1H-Indol-3-yl)methyl)-5-phenyl-1,2,4-triazin-6-yl)benzyl)morpholine] had an LLE of 3.97.
Still for that read-out and setting: in the case of `CNC(=O)c1ccc(-c2nc(Cc3c[nH]c4cnccc34)nnc2-c2ccccc2)cc1` [Compound 67, 4-(3-((1H-Pyrrolo[2,3-c]pyridin-3-yl)methyl)-6-phenyl-1,2,4-triazin-5-yl)-N-methylbenzamide] it was 3.94; in that of `FC(F)(F)Oc1ccccc1-c1cnc(Cc2c[nH]c3ccccc23)nn1` [Compound 27, 3-((6-(2-(Trifluoromethoxy)phenyl)-1,2,4-triazin-3-yl)methyl)-1H-indole], 1.91.
The molecule `CS(=O)(=O)NCc1ccc(-c2nc(Cc3c[nH]c4ccccc34)nnc2-c2ccccc2)cc1` [Compound 47, N-(4-(3-((1H-indol-3-yl)methyl)-6-phenyl-1,2,4-triazin-5-yl)benzyl)methanesulfonamide] had an LLE of 3.49.
Take `COC(=O)c1ccc(-c2nc(Cc3c[nH]c4ccccc34)nnc2-c2ccccc2)cc1` [Compound 49, Methyl 4-(3-((1H-Indol-3-yl)methyl)-6-phenyl-1,2,4-triazin-5-yl)benzoate]: the LLE was 2.2.
In turn, `O=C(c1ccc(-c2nnc(Cc3c[nH]c4ccccc34)nc2-c2ccccc2)cc1)N1CCOCC1` [Compound 74, (4-(3-((1H-Indol-3-yl)methyl)-5-phenyl-1,2,4-triazin-6-yl)phenyl)(morpholino)methanone] registered an LLE of 3.91.
`c1ccc(-c2nc(Cc3c[nH]c4cnccc34)nnc2-c2ccnnc2)cc1` [Compound 62, 3-((5-Phenyl-6-(pyridazin-4-yl)-1,2,4-triazin-3-yl)methyl)-1H-pyrrolo[2,3-c]pyridine] registered an LLE of 5.15.
With `c1ccc(-c2nc(Cc3c[nH]c4cnccc34)nnc2-c2cnccn2)cc1` [Compound 60, 3-((5-Phenyl-6-(pyrazin-2-yl)-1,2,4-triazin-3-yl)methyl)-1H-pyrrolo[2,3-c]pyridine], the LLE turned out to be 4.46.
On the same count and under the same terms, to `COC(=O)c1ccc(-c2nc(Cc3c[nH]c4cnccc34)nnc2-c2ccccc2)cc1` [Compound 65, Methyl 4-(3-((1H-Pyrrolo[2,3-c]pyridin-3-yl)methyl)-6-phenyl-1,2,4-triazin-5-yl)benzoate] belongs 3.79; to `CNC(=O)c1ccc(-c2nnc(Cc3c[nH]c4ccncc34)nc2-c2ccccc2)cc1` [Compound 72, 4-(3-((1H-Pyrrolo[3,2-c]pyridin-3-yl)methyl)-5-phenyl-1,2,4-triazin-6-yl)-N-methylbenzamide], 3.81.
Take `COC(=O)c1ccc(-c2nnc(Cc3c[nH]c4cnccc34)nc2-c2ccccc2)cc1` [Compound 66, Methyl 4-(3-((1H-Pyrrolo[2,3-c]pyridin-3-yl)methyl)-5-phenyl-1,2,4-triazin-6-yl)benzoate]: the LLE was 3.44.
Same read-out and setting: in the case of `c1ccc(-c2nnc(NCc3cccnc3)nc2-c2ccccc2)cc1` it was 1.94; in that of `O=C(O)c1cccc(-c2nc(Cc3c[nH]c4ccccc34)nnc2-c2ccccc2)c1` [Compound 55, 3-(3-((1H-Indol-3-yl)methyl)-6-phenyl-1,2,4-triazin-5-yl)benzoic Acid], 0.58; in that of `c1ccc(-c2nnc(Cc3c[nH]c4cnccc34)nc2-c2ccc(CN3CCOCC3)cc2)cc1` [Compound 63, 4-(4-(3-((1H-Pyrrolo[2,3-c]pyridin-3-yl)methyl)-6-phenyl-1,2,4-triazin-5-yl)benzyl)morpholine], 3.92.
The same measure, in the same setting: to “3-((5-Phenyl-6-(pyrimidin-2-yl)-1,2,4-triazin-3-yl)methyl)-1H-indole or 3-((6-phenyl-5-(pyrimidin-2-yl)-1,2,4-triazin-3-yl)methyl)-1H-indole” belongs 4.57.
On the same count and under the same terms, in the case of `O=C(NCCO)c1ccc(-c2nnc(Cc3c[nH]c4cnccc34)nc2-c2ccccc2)cc1` [Compound 70, 4-(3-((1H-Pyrrolo[2,3-c]pyridin-3-yl)methyl)-5-phenyl-1,2,4-triazin-6-yl)-N-(2-hydroxyethyl)benzamide] it was 5.06; in that of `CC(C)c1nnc(Cc2c[nH]c3ccccc23)nc1C(C)C` [Compound 9, 3-((5,6-Diisopropyl-1,2,4-triazin-3-yl)methyl)-1H-indole], 1.61; in that of `Cc1cc(Cc2nnc(-c3ccccc3)c(-c3ccccc3)n2)n[nH]1` [Compound 23, 3-((5-Methyl-1H-pyrazol-3-yl)methyl)-5,6-diphenyl-1,2,4-triazine], 2.26.
Regarding `c1ccc(-c2nnc(Cc3c[nH]c4ccccc34)nc2-c2ccc(CN3CCOCC3)cc2)cc1` [Compound 41, 4-(4-(3-((1H-Indol-3-yl)methyl)-6-phenyl-1,2,4-triazin-5-yl)benzyl)morpholine], the LLE is given as 3.2.
Still for that read-out and setting: to `CNS(=O)(=O)c1ccc(-c2nc(Cc3c[nH]c4ccccc34)nnc2-c2ccccc2)cc1` [Compound 33, 4-(3-((1H-Indol-3-yl)methyl)-6-phenyl-1,2,4-triazin-5-yl)-N-methylbenzenesulfonamide] belongs 2.83; to `CNC(=O)c1ccc(-c2nc(Cc3c[nH]c4ccncc34)nnc2-c2ccccc2)cc1` [Compound 71, 4-(3-((1H-Pyrrolo[3,2-c]pyridin-3-yl)methyl)-6-phenyl-1,2,4-triazin-5-yl)-N-methylbenzamide], 3.1; to `CC(=O)NCCNC(=O)c1ccc(-c2nnc(Cc3c[nH]c4ccccc34)nc2-c2ccccc2)cc1` [Compound 79, 4-(3-((1H-Indol-3-yl)methyl)-5-phenyl-1,2,4-triazin-6-yl)-N-(2-acetamidoethyl)benzamide], 3.36.
Still for that read-out and setting: in the case of `COc1ccc(-c2nnc(Cc3c[nH]c4ccccc34)nc2-c2ccc(OC)cc2)cc1` [Compound 1, 3-((5,6-Bis(4-methoxyphenyl)-1,2,4-triazin-3-yl)methyl)-1H-indole] it was 3.24; in that of `CNC(=O)c1ccc(-c2nnc(Cc3c[nH]c4cnccc34)nc2-c2ccccc2)cc1` [Compound 68, 4-(3-((1H-Pyrrolo[2,3-c]pyridin-3-yl)methyl)-5-phenyl-1,2,4-triazin-6-yl)-N-methylbenzamide], 4.75.
As to `OCc1ccc(-c2nc(Cc3c[nH]c4ccccc34)nnc2-c2ccccc2)cc1` [Compound 39, (4-(3-((1H-Indol-3-yl)methyl)-6-phenyl-1,2,4-triazin-5-yl)phenyl)methanol], the LLE came out at 3.64.
For the molecule `O=C(O)c1ccc(-c2nnc(Cc3c[nH]c4ccccc34)nc2-c2ccccc2)cc1` [Compound 52, 4-(3-((1H-Indol-3-yl)methyl)-5-phenyl-1,2,4-triazin-6-yl)benzoic Acid], the LLE came out at 2.65.
Same read-out and setting: to `OCc1ccc(-c2nnc(Cc3c[nH]c4ccccc34)nc2-c2ccccc2)cc1` [Compound 40, (4-(3-((1H-Indol-3-yl)methyl)-5-phenyl-1,2,4-triazin-6-yl)phenyl)methanol] belongs 4.24; to `CS(=O)(=O)c1ccc(-c2nnc(Cc3c[nH]c4ccccc34)nc2-c2ccccc2)cc1` [Compound 36, 3-((6-(4-(Methylsulfonyl)phenyl)-5-phenyl-1,2,4-triazin-3-yl)methyl)-1H-indole], 3.12; to `O=C(NCCO)c1ccc(-c2nc(Cc3c[nH]c4cnccc34)nnc2-c2ccccc2)cc1` [Compound 69, 4-(3-((1H-Pyrrolo[2,3-c]pyridin-3-yl)methyl)-6-phenyl-1,2,4-triazin-5-yl)-N-(2-hydroxyethyl)benzamide], 4.86.
The molecule `O=C(NCCO)c1ccc(-c2nnc(Cc3c[nH]c4ccccc34)nc2-c2ccccc2)cc1` [Compound 76, 4-(3-((1H-Indol-3-yl)methyl)-5-phenyl-1,2,4-triazin-6-yl)-N-(2-hydroxyethyl)benzamide] registered an LLE of 4.53.
Still for that read-out and setting: in the case of `CN1CCN(C(=O)c2ccc(-c3nnc(Cc4c[nH]c5ccccc45)nc3-c3ccccc3)cc2)CC1` [Compound 77, (4-(3-((1H-Indol-3-yl)methyl)-5-phenyl-1,2,4-triazin-6-yl)phenyl)(4-methylpiperazin-1-yl)methanone] it was 2.11; in that of `Brc1ccc(-c2nnc(Cc3c[nH]c4ccccc34)nc2-c2ccc(Br)cc2)cc1` [Compound 7, 3-((5,6-Bis(4-bromophenyl)-1,2,4-triazin-3-yl)methyl)-1H-indole], 1.31; in that of `CC(=O)OCc1ccc(-c2nc(Cc3c[nH]c4ccccc34)nnc2-c2ccccc2)cc1` [Compound 37, 4-(3-((1H-Indol-3-yl)methyl)-6-phenyl-1,2,4-triazin-5-yl)benzyl Acetate], 3.92.
As for `CS(=O)(=O)NCc1ccc(-c2nnc(Cc3c[nH]c4ccccc34)nc2-c2ccccc2)cc1` [Compound 48, N-(4-(3-((1H-Indol-3-yl)methyl)-5-phenyl-1,2,4-triazin-6-yl)benzyl)methanesulfonamide], the LLE was 4.38.
`CC(=O)NCc1ccc(-c2nnc(Cc3c[nH]c4ccccc34)nc2-c2ccccc2)cc1` [Compound 46, N-(4-(3-((1H-Indol-3-yl)methyl)-5-phenyl-1,2,4-triazin-6-yl)benzyl)acetamide] registered an LLE of 4.61.
Still for that read-out and setting: in the case of `c1ccc(-c2nnc(Cc3cnc4ccccn34)nc2-c2ccccc2)cc1` [Compound 20, 3-((5,6-Diphenyl-1,2,4-triazin-3-yl)methyl)imidazo[1,2-a]pyridine] it was 1.6; in that of `c1ccc(-c2nnc(CCc3cccnc3)nc2-c2ccccc2)cc1`, 1.55.
In the case of `COC(=O)c1ccc(-c2nnc(Cc3c[nH]c4ccccc34)nc2-c2ccc(C(=O)OC)cc2)cc1` [Compound 10, Methyl 4-[3-(1H-Indol-3-ylmethyl)-6-(4-methoxycarbonylphenyl)-1,2,4-triazin-5-yl]benzoate], the LLE is listed as 2.16.
With `CC(=O)OCc1ccc(-c2nnc(Cc3c[nH]c4ccccc34)nc2-c2ccccc2)cc1` [Compound 38, 4-(3-((1H-Indol-3-yl)methyl)-5-phenyl-1,2,4-triazin-6-yl)benzyl Acetate], the LLE was 3.68.

Still in this experiment, the particulars now being: LLE = pIC50 – Log D7.4.
`c1ccc(-c2nc(Cc3c[nH]c4ccccc34)nnc2-c2ccc(CN3CCOCC3)cc2)cc1` [Compound 42, 4-(4-(3-((1H-Indol-3-yl)methyl)-5-phenyl-1,2,4-triazin-6-yl)benzyl)morpholine] gave an LLE of 4.44.
`CNC(=O)c1ccc(-c2nnc(Cc3c[nH]c4cnccc34)nc2-c2ccccc2)cc1` [Compound 68, 4-(3-((1H-Pyrrolo[2,3-c]pyridin-3-yl)methyl)-5-phenyl-1,2,4-triazin-6-yl)-N-methylbenzamide] came in with an LLE of 4.58.
Still for that read-out and setting: in the case of `O=C(NCCO)c1ccc(-c2nnc(Cc3c[nH]c4ccccc34)nc2-c2ccccc2)cc1` [Compound 76, 4-(3-((1H-Indol-3-yl)methyl)-5-phenyl-1,2,4-triazin-6-yl)-N-(2-hydroxyethyl)benzamide] it was 4.37.
